Assay results reported in BindingDB's records for doi:10.1007/BF02244985 (Mayo Clinic, 1994).

Chains of the proteins cited; added tags and fusions are not shown.
UniProt P08913, whole entry: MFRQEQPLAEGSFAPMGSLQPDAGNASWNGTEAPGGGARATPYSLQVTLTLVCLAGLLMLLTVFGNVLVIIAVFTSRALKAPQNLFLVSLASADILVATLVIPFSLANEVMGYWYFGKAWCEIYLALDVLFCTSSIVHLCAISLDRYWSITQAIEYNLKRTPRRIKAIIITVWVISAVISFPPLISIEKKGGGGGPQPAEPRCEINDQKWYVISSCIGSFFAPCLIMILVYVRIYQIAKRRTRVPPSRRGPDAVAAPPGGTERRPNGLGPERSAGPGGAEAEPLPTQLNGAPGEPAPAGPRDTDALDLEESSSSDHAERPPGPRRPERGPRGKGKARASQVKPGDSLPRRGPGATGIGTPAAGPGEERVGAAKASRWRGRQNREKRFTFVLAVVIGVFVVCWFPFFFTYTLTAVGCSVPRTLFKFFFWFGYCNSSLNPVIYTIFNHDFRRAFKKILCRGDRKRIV

Molecular target: Alpha-2A adrenergic receptor (Homo sapiens, UniProt P08913)

CCc1nn(CCCN2CCN(c3cccc(Cl)c3)CC2)c(=O)n1CCOc1ccccc1 [2-{3-[4-(3-chlorophenyl)piperazin-1-yl]propyl}-5-ethyl-4-(2-phenoxyethyl)-2,4-dihydro-3H-1,2,4-triazol-3-one]
Ki: 0.64 µM
